Experiments:
rat orexin 1 receptor = rat orexin 1 receptor (Rattus norvegicus, UniProt P56718); assay: Rat orexin 1 receptor radioligand binding (competitive, HEK293 membranes); settings: rat OX1 receptor binding; averages from between 2-20 runs; read-out: rOX1 Ki
Experimental: (§1) The in vitro affinity of the compounds of the invention for the rat/human orexin 1 and human orexin 2 receptors was determined by competitive radioligand binding using [^3H]
(§2) Data are analyzed using pc-Sandy macro and graphed on Graphpad Prism 5. For analysis, each concentration point is averaged from triplicate values and the averaged values are plotted on Graphpad Prism. The IC50 was determined by applying the following equation (GraphPad Prism 5.0, SanDiego) for one site competition where X=log (concentration) and Y=specific binding. […] Graphpad Prism calculates Ki value from IC50 and the pre-determined Kd values for [^3H]-(1-(5-(2-fluoro-phenyl)-2-methyl-thiazol-4-yl)-1-((S)-2-(5-phenyl-(1,3,4)oxadiazol-2-ylmethyl)-pyrrolidin-1-yl)-methanone) and [3H]-EMPA. […]
(§3) After centrifugation (2K×G, 5 min at 4° C.), the supernatant was aspirated and the pellets frozen and stored at −80° C. […] Total and nonspecific binding was determined in the absence and presence of 10 μM almorexant. […] Plates were dried in 55° C. oven for 60 min, scintillation fluid was added, and the radioactivity was counted on a Topcount (Packard).

Amino acid sequences for entries named in this document (tags omitted).
UniProt O43613, whole entry: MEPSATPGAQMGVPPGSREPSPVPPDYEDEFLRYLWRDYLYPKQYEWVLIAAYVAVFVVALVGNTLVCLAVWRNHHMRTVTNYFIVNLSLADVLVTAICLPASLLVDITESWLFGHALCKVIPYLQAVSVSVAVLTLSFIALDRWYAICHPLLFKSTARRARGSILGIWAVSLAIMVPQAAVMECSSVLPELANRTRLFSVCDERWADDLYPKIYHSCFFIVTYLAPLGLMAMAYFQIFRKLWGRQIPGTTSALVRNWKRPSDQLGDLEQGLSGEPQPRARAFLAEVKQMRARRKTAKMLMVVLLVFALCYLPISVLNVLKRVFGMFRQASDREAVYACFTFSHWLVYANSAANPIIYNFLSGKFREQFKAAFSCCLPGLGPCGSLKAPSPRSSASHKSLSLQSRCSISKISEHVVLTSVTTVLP

human orexin 1 receptor = human orexin 1 receptor (Homo sapiens (Human), UniProt O43613); assay: Human orexin 1 receptor radioligand binding (competitive, CHO membranes); settings: human OX1 receptor binding; averages from between 2-20 runs; read-out: hOX1 Ki
Experimental: as §1, §2, §3

A Ki (rat orexin 1 receptor) of 8 nM and a Ki (human orexin 1 receptor) of 5 nM were found for `Cc1ccc(-n2nccn2)c(C(=O)N2C[C@@H]3CC[C@H]2[C@H](Nc2cnc(C(F)(F)F)cn2)C3)n1` [Example 83, (6-methyl-3-(2H-1,2,3-triazol-2-yl)pyridin-2-yl)((1S,4R,6R)-6-((5-(trifluoromethyl)pyrazin-2-yl)amino)-2-azabicyclo[2.2.2]octan-2-yl)methanone] in this work.

— US10183953B2, “Substituted 2-azabicycles and their use as orexin receptor modulators” (Janssen Pharmaceutica NV, priority 2013, dated 2019)
